How the values were obtained:
Conditions in all cases: 5 µM, after 72 h, triplicate
[1] = system: RWPE-1 normal human prostate epithelial cells; assay: MTS cell viability assay, RWPE-1; assay type: cell-based
Text: (§1) CellTiter 96 was bought from Promega, Madison, WI, USA.

[2] = system: LNCaP; assay: MTS cell viability assay, LNCaP; assay type: cell-based, human
Text: as §1

[3] = system: C4-2; assay: MTS cell viability assay, C4-2 without TGF-β; assay type: cell-based, human
Text: as §1

[4] = system: DU-145; assay: MTS cell viability assay, DU-145; assay type: cell-based, human
Text: as §1

[5] = system: PC3; assay: MTS cell viability assay, PC3

| Substance | cytotoxicity [1] | cytotoxicity [2] | cytotoxicity [3] | cytotoxicity [4] | cytotoxicity [5] |
| --- | --- | --- | --- | --- | --- |
| hydrazine-glutarate-GG-FK-C6-[CTVRTSADC] (disulfide) [compound 5] | did not show any significant cytotoxicity | did not show any significant cytotoxicity | did not show any significant cytotoxicity | did not show any significant cytotoxicity | did not show any significant cytotoxicity |
| hydrazine-glutarate-GG-VCit-C6-[CTVRTSADC] (disulfide) [compound 6] | did not show any significant cytotoxicity | did not show any significant cytotoxicity | did not show any significant cytotoxicity | did not show any significant cytotoxicity | did not show any significant cytotoxicity |
